Measured values: US9034877B2 (Wayne State University, priority 2009, dated 2015)

Chains of the proteins cited; added tags and fusions are not shown.
UniProt P19020, whole entry: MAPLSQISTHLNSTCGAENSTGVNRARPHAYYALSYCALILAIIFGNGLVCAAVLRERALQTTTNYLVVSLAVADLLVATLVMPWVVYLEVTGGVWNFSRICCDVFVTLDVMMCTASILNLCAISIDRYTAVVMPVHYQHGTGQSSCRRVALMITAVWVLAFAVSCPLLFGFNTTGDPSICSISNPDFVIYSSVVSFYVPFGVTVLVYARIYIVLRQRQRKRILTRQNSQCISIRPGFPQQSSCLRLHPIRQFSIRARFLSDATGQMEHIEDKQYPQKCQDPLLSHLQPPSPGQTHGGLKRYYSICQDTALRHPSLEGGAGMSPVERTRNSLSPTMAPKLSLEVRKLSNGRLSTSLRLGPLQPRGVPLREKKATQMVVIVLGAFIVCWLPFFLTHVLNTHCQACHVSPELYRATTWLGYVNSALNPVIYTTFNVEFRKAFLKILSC

Target: T1, D3 receptor (Rattus norvegicus, UniProt P19020)
T1 construct: expressed in transfected cells
Experiment: Inhibition of [3H]spiperone binding to cloned D3 receptors expressed in HEK-293 cells
Conditions: rat D3 in HEK-293 cells

CCCN(CCN1CCN(C(=O)c2ccc3[nH]ccc3c2)CC1)C1CCc2ccc(O)cc2C1 (stereo not shown) [Compound 40a, (4-{2-[(7-Hydroxy-1,2,3,4-tetrahydro-naphthalen-2-yl)-propyl-amino]-ethyl}-piperazin-1-yl)-(1H-indol-5-yl)-methanone]
Ki: 1.67 nM
